Laboratory results published in patent US20040106626A1, “6-Membered unsaturated heterocyclic compounds useful for selective inhibition of the coagulation cascade” (Pharmacia Corporation, priority 2001, published 2004).

By UniProt entry, the sequences of proteins in these tests, tags left out. Residues count along the entry.
UniProt P00742, 41-179 limits assumed: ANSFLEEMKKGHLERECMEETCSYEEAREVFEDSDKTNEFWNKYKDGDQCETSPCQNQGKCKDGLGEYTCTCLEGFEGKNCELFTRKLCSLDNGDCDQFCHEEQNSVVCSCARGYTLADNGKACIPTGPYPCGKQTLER
UniProt P00742, 235-488 limits assumed: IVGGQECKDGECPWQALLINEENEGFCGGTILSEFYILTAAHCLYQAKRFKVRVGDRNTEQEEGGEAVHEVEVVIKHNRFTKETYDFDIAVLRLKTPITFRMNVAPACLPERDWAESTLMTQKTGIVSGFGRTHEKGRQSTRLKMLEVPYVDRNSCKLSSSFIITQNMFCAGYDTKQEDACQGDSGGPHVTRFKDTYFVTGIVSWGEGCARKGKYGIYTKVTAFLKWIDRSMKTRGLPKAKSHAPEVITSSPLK

Biological target: T1, Human factor Xa (Homo sapiens, UniProt P00742)
T1 construct: purchased Enzyme Research Laboratories, South Bend Ind
Assay: Xa assay (chromogenic substrate S-2765)
Format: biochemical
Settings: reported only as less than or greater than 30 uM; read-out: Factor Xa (II) IC50
Description: Human factor Xa (0.3 nM) and 0.15 mM -a-Benzyloxycarbonyl-D-arginyl-L-glycyl-L-arginine-p-nitroaniline-dihydrochloride (S-2765) are added to a 96-well assay plate containing either inhibitor or buffer (50 mM Tris-HCl, pH 8.0, 100 mM NaCl, 0.1% BSA). The reaction, in a final volume of 100 ul is measured immediately at 405 nm to determine background absorbance. The plate is incubated at room temperature for 60 min, at which time the rate of hydrolysis of the substrate is measured by monitoring the reaction at 405 nm for the release of p-nitroaniline. Percent inhibition of Xa activity is calculated from OD405 nm value from the experimental and control sample.
Recombinant soluble TF, consisting of amino acids 1-219 of the mature protein sequence was expressed in E. coli and purified using a Mono Q Sepharose FPLC. Recombinant human VIIa was purchased from American Diagnostica, Greenwich CT and chromogenic substrate N-methylsulfonyl-D-phe-gly-arg-p-nitroaniline was prepared by American Peptide Company, Inc., Sunnyvale, Calif. Factor Xa was obtained from Enzyme Research Laboratories, South Bend Ind., thrombin from Calbiochem, La Jolla, Calif., and trypsin and L-BAPNA from Sigma, St. Louis Mo. The chromogenic substrates S-2765 and S-2238 were purchased from Chromogenix, Sweden.

IC50: > 30 µM
Compound: CC(C)Nc1ccc(-c2cc(N)cc(N)c2)n(CC(=O)NCc2ccc(C(=N)N)cc2)c1=O [Example 163]
